In PubChem BioAssay (NCI) one finds GI50 and TGI data, which are given here for 1 compound.

Structures are written as SMILES.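 How tested: cells in 96-well plates exposed to compound for 48 hours at five concentrations. At the GI50, growth is halved. The concentration for full growth arrest is given as TGI.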

The test deals with MDA-MB-468 breast. Put plainly: growth of human tumour cells (NCI), 48 h.

As for `Cc1c([N+](=O)[O-])c(C)c([N+](=O)[O-])c(Nc2c([N+](=O)[O-])c(C)c([N+](=O)[O-])c(C)c2[N+](=O)[O-])c1[N+](=O)[O-]`, the GI50 was 331 nM and the TGI turned out to be 1900 nM.
